Reference: PubChem BioAssay AID504648 (National Center for Advancing Translational Sciences (NCATS), 2011)
Only a part is listed here, and it is no random draw. Some results for these compounds are left out of this collection, so the calls shown say nothing about other tests. Inconclusive results are not listed. The source made the active and inactive calls. Calls follow the shape of the dose curve; as a rule, active = well fitted inhibition curve with a large enough effect; inconclusive = small, poorly fitted or top-dose-only effect, or effect the other way, or another doubt; inactive = no such curve, though single readings can be large or run the other way.

Assay: Nrf2 qHTS screen for inhibitors: counterscreen for cytotoxicity
Conditions: A549 ARE-Fluc cells, CellTiter-Fluor viability, 18-24 h; at 46 µM (top of the series)
Text: NIH Molecular Libraries Probe Production Network [MLPCN]
NIH Chemical Genomics Center [NCGC]
Assay Provider: Shyam Biswal, Johns Hopkins University
Nrf2 is a transcription factor that maintains cellular redox homoestasis and protects cells from xenobiotics. Nrf2 binds to the antioxidant response element (ARE) to induce gene expression of a broad spectrum of genes that encode for antioxidants. […] Finding a small molecule that act as an inhibitor of Nrf2 function would represent a novel therapeutic target that could lead to improvement in survival of patients undergoing chemo- and/or radio- therapy.
So here we implemented a counterscreen to weed out the cytotoxic compounds.
1. […]
A concentration-response assay was performed with A549 ARE_Fluc cells which are suspended in 5% FBS OPTI-MEM. […] The plate is then incubated at 37deg C at 5% CO2 for 30 minutes before they are read on the ViewLux (Perkin Elmer) for a fluorescent read Ex=405(10)/Em=525(10) for a 3 second exposure, 2x binning, and high gain. […] Afterwards another ViewLux read is performed using the clear filter to get a luminescent read with the settings of 40 second exposure, 2x binning, and high gain. Cytotoxicity is assessed through the first fluorescent read and then biochemical activity against Nrf2 is measured in the luminescent read.
% is scaled to controls: 0 for no effect and ±100 for the full control effect.

Question: With `C=CCN1CCN(CCOC(=O)C(O)(c2ccccc2)c2ccccc2)CC1` as the compound, how does the activity change, negative = cytotoxicity read?
Answer: Its activity change, negative = cytotoxicity is inactive: -2.01%.

Question: For `CC(C)N1C(=O)CC2(CCN(CCOC(=O)C(O)(c3ccccc3)c3ccccc3)CC2)C1=O`, which activity change, negative = cytotoxicity is on record?
Answer: Its activity change, negative = cytotoxicity is inactive: -1.62%.
